From US20240083981A1, “TREATMENT OF HERPES SIMPLEX VIRUS INFECTION” (priority 2022, published 2024)

Experiments:
[1] = biological target: glycoprotein D (gD) of herpes simplex virus-1 (HSV-1), on infectious virus (herpes simplex virus-1 (HSV-1)) (UniProt Q69091); test: cell-based or functional assay
[2] = biological target: glycoprotein D (gD) of herpes simplex virus-2 (HSV-2), on infectious virus (herpes simplex virus-2 (HSV-2)) (UniProt P03172); test: cell-based or functional assay

UB-621 (anti-HSV-gD mAb) (antibody) showed an IC50, inhibition of clinical isolate HSV-1 Bethesda (cell viability assay, Vero cells) [1] of 1.87 nM, an IC50, inhibition of clinical isolate HSV-1 RH (cell viability assay, Vero cells) [1] of 2.38 nM and an IC90, inhibition of clinical isolate HSV-1 Bethesda (cell viability assay, Vero cells) [1] of 9.52 nM. For the same substance, the IC90, inhibition of clinical isolate HSV-1 RH (cell viability assay, Vero cells) [1] was 6.14 nM, the inhibition of cell-to-cell spread, plaque formation by HSV-1 gE-GFP reporter virus in Vero cells [1] was 1000 nM and the IC50, inhibition of clinical isolate HSV-2 Bethesda (cell viability assay, Vero cells) [2] was 13.6 nM. It also gave an IC50, inhibition of clinical isolate HSV-2 IC (ACV-resistant; cell viability assay, Vero cells) [2] of 11.4 nM, an IC50, inhibition of clinical isolate HSV-2 JA-1 (cell viability assay, Vero cells) [2] of 4.31 nM and an IC50, inhibition of clinical isolate HSV-2 JA-2 (cell viability assay, Vero cells) [2] of 12.7 nM. For the same substance, the IC50, inhibition of clinical isolate HSV-2 JA-3 (cell viability assay, Vero cells) [2] was 18.3 nM, the IC50, inhibition of clinical isolate HSV-2 MO (cell viability assay, Vero cells) [2] was 8.05 nM and the IC50, inhibition of clinical isolate HSV-2 poly-mut (polymerase mutant; cell viability assay, Vero cells) [2] was 27.1 nM. The IC90, inhibition of clinical isolate HSV-2 Bethesda (cell viability assay, Vero cells) [2] was 22.4 nM, the IC90, inhibition of clinical isolate HSV-2 IC (ACV-resistant; cell viability assay, Vero cells) [2] was 20.9 nM and the IC90, inhibition of clinical isolate HSV-2 JA-1 (cell viability assay, Vero cells) [2] was 18.2 nM. For the same substance, the IC90, inhibition of clinical isolate HSV-2 JA-2 (cell viability assay, Vero cells) [2] was 26.7 nM, the IC90, inhibition of clinical isolate HSV-2 JA-3 (cell viability assay, Vero cells) [2] was 31.6 nM and the IC90, inhibition of clinical isolate HSV-2 MO (cell viability assay, Vero cells) [2] was 15.2 nM. For the same substance, the IC90, inhibition of clinical isolate HSV-2 poly-mut (polymerase mutant; cell viability assay, Vero cells) [2] was 69.8 nM.
